Consider one substance from patent US20220025036A1, “USE OF IL-1BETA BINDING ANTIBODIES” (NOVARTIS AG, priority 2018, published 2022).

This test addresses IL-1β (Homo sapiens, UniProt P01584). Kind of test: In vitro potency (IC50) of IL-1β antibodies. It counts as biochemical.

As usually defined, the IC50 is the point on the concentration scale where inhibition reaches its midpoint. Low readings indicate greater potency, high ones weaker potency. In turn, “gevokizumab: high-affinity, humanized monoclonal antibody of the IgG2 isotype to interleukin-1β (SEQ ID NO:19 and 20)” showed an IC50 of 2 to 5 pM. In addition, the “in vitro potency compared to canakinumab” value (higher potency) was approximately 10 times.
